Measurements from PubChem BioAssay AID651746 (Johns Hopkins Ion Channel Center, 2012).
The entries are a selection whose mix differs from that of the whole data set. Calls of active or inactive are those of the source.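 How the source made its calls: active means mean percent inhibition of the KCNQ2 thallium signal more than 5 SD above the buffer-only control wells; inactive means the rest.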

Sequences of proteins named here, by UniProt entry; tags and fusion partners are left off.
UniProt O88943, whole entry, looked up: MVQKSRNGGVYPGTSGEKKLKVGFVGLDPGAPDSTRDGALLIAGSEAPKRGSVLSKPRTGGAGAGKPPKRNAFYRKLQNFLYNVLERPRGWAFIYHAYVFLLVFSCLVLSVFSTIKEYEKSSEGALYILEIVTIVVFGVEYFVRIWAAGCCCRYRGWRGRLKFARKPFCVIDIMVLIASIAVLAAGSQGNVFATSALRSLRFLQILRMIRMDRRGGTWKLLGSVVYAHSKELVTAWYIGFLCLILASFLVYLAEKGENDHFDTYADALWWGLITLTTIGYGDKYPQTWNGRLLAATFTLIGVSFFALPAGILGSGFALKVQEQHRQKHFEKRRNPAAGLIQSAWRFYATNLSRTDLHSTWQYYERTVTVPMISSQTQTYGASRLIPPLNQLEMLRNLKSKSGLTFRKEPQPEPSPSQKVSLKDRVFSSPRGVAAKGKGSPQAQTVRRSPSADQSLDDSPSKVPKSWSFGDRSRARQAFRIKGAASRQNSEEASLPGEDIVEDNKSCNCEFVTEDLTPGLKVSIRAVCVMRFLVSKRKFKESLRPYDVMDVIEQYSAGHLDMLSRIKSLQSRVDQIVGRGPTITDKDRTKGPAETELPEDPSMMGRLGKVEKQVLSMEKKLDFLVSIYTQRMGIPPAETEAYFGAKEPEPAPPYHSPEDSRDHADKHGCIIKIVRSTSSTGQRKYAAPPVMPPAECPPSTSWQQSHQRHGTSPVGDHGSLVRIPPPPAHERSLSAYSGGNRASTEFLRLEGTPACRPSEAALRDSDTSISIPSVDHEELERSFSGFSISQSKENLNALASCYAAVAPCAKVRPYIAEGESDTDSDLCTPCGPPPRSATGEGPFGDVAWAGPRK

These compounds were tested against Potassium voltage-gated channel subfamily KQT member 2 (Rattus norvegicus) (UniProt O88943) (assay: KCNQ2 channel inhibition, selectivity assay for KCNQ1 inhibitor project, cell-based (AID 651746;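 further: KCNQ2 expressed in CHO cells; 0% = buffer control wells and 100% = XE-991 inhibitor control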)). Conditions: KCNQ2 cells, FluxOR thallium flux fluorescence; at 10 µM; stronger effect = higher value.

Question: Which inhibition does the source give for `CCC1=CC2Cc3nc4ccc(Cl)cc4c(N)c3C(C1)C2` (configuration not stated) here?
Answer: Its inhibition is active: 68.3%.

Question: With `COc1cc(C(=O)NCC2(N3CCOCC3)CCCCC2)cc(Cl)c1OC(C)C` as the compound, how does the inhibition read?
Answer: Its inhibition is active: 79.7%.
